The values below come from patent US8791267B2, “Biaryl PDE4 inhibitors for treating inflammatory, cardiovascular and CNS disorders” (Decode Genetics EHF, priority 2007, dated 2014).

The chains behind the UniProt entries cited, without tags or fusion partners. Where a name states a change or a piece, a line headed by the entry shows the natural chain unless it says otherwise.
UniProt Q08499: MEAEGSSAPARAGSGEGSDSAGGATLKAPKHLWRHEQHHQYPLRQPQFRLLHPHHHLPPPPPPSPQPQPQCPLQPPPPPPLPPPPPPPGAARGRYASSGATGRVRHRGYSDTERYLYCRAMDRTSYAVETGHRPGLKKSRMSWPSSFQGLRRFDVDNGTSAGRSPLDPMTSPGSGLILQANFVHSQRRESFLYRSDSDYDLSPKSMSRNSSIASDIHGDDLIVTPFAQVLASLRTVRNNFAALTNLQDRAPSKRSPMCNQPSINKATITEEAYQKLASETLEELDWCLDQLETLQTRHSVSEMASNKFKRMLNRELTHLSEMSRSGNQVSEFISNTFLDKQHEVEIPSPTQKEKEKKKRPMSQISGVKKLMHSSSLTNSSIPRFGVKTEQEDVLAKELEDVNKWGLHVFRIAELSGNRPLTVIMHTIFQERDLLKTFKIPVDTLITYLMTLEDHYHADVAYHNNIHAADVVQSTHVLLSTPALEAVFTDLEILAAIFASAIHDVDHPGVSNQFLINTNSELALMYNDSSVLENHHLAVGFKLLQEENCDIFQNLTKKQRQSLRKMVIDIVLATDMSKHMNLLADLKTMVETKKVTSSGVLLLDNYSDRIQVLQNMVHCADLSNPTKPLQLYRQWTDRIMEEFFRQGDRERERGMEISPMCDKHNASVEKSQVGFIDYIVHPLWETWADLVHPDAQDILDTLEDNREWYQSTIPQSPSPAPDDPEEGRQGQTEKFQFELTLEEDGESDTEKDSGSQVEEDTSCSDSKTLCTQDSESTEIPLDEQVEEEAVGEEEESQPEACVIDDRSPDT
UniProt Q07343: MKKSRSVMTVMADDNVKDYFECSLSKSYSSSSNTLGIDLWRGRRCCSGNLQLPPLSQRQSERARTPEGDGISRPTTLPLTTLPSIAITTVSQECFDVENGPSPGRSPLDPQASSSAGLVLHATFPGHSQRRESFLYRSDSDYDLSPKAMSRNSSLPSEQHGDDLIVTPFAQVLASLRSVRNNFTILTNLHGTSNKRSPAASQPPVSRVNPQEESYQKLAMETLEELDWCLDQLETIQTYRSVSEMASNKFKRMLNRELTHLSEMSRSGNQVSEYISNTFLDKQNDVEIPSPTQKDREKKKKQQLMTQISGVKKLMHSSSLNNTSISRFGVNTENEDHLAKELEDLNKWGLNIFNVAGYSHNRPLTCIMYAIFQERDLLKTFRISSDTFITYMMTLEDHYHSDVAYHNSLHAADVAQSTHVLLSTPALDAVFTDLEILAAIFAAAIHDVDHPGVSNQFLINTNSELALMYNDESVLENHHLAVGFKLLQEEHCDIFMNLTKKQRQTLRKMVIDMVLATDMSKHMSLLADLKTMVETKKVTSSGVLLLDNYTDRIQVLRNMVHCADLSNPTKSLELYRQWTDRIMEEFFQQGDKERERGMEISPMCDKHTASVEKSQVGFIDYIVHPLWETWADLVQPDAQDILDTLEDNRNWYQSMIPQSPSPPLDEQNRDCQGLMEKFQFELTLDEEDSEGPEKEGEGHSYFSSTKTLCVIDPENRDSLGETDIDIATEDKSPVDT

The target of one assay is PDE4 (Homo sapiens, UniProt Q08499). Description: In-vitro assay for PDE4 enzymes, real-time enzyme-coupled spectrophotometric assay (Table 9). The class given is biochemical. The conditions noted are these: read-out: hPDE4D, human PDE4D, activity class.
Another assay concerns the target PDE4B (Homo sapiens, UniProt Q07343). Description: In-vitro assay for PDE4 enzymes, real-time enzyme-coupled spectrophotometric assay, PDE4B Activity (Table 10). The class given is biochemical. The conditions noted are these: read-out: PDE4B Activity, hPDE4B.

Regarding `COc1ccc(CC23OCC(C)(CO2)CO3)cc1-c1cccc([N+](=O)[O-])c1`, the IC50 on PDE4 is below 5 µM; on PDE4B it was 5 to 20 µM.
